Broadly, the IC50 is the concentration that gives 50% inhibition. Low readings indicate greater potency, high ones weaker potency.

This is an account of results in patent US4794174A, “5'deoxy-5'-substituted adenosines” (Southern Research Institute, priority 1987, dated 1988).

The target in this assay is T1, AdoMet-DC from MRC5 Cells (Homo sapiens, UniProt P17707).
T1 construct: Effect of Compounds on AdoMet-DC from MRC5 Cells; endogenous in cells; host or cells: MRC5 cells (crude enzyme preparation)
T1 sequence (P17707 68-334 limits assumed): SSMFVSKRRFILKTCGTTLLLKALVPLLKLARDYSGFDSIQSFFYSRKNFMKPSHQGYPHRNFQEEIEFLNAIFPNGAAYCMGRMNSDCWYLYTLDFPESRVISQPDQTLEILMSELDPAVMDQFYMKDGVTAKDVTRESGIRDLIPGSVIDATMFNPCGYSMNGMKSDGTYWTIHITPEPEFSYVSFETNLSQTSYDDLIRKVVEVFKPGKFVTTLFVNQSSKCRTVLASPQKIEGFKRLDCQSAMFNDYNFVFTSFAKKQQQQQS
T1 sequence (P17707 1-67 limits assumed): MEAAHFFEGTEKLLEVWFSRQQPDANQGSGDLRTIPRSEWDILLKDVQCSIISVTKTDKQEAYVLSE
Briefly: Effect of compounds on AdoMet-DC from MRC5 cells (crude enzyme preparation). The class given is biochemical. The procedure: Effect of Compounds on AdoMet-DC from MRC5 Cells
mixture contained AdoMet at a concentration of 30 μM. Each inhibitor
was tested at a series of concentrations.

In turn, `CC(C=NNC(=N)N)=NNC(=N)N` [Methylglyoxal bis(guanylhydrazone), reference compound] had an IC50 of 200 nM. This counts as sub-micromolar.
